Experiment [1] is filed under the species Rattus norvegicus. As to the kind of experiment: Selectivity ratio of Ki(app) for rat recombinant GluN1/GluN2A receptor to Ki(app) for rat recombinant GluN1/GluN2D receptor. The method in brief:
(§1)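 Rat GluN1a is co-expressed with GluN2A, 2B, 2C or 2D in Xenopus oocytes and recorded by two-electrode voltage clamp at −60 mV. Buffer is 116 mM NaCl, 2 mM KCl, 0.3 mM BaCl2, 5 mM HEPES, pH 7.4. The plateau response to bath-applied 10 μM L-glutamate plus 10 μM glycine is measured. Apparent Ki is IC50/(1+[agonist]/EC50).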

The species named for experiment [2] is Rattus norvegicus. As to the kind of experiment: Selectivity ratio of Ki(app) for rat recombinant GluN1/GluN2B receptor to Ki(app) for rat recombinant GluN1/GluN2D receptor. The method in brief: as §1
Experiment [3] relates to Kainate receptors (Rattus norvegicus). Kind of experiment: Displacement of [3H]-Kainate from native kainate receptors in rat brain homogenate. Particulars: concentration not given here. (In a radioligand displacement assay an active substance lowers the binding of a labelled ligand.)

Consider `O=C(O)[C@H]1NCCN(C(=O)c2ccc3cc(-c4ccccc4)ccc3c2)[C@H]1C(=O)O` (relative stereo), for which the Ratio Ki in the experiment filed under Rattus norvegicus [1] and in the experiment filed under Rattus norvegicus [2] was greater than 10 in each case.

Take `O=C(O)[C@H]1NCCN(C(=O)c2ccc(C#Cc3ccccc3)cc2)[C@H]1C(=O)O` (relative stereo): the Ratio Ki(app) in the experiment listed under Rattus norvegicus [1] was determined as 10. In addition, the inhibition (in general, the drop in the measured response relative to a control, in per cent) in experiment [3] came out at 10%.

(Values after ChEMBL document CHEMBL1949555, “Piperazine-2,3-dicarboxylic acid derivatives as dual antagonists of NMDA and GluK1-containing kainate receptors” (J Med Chem, 2012).)
